By UniProt entry, the sequences of proteins in these tests, tags left out. Where a name states a change or a piece, a line headed by the entry shows the natural chain unless it says otherwise. Chains listed by the source or under a name are the forms on record and can include a tag or linker. Residues count along the entry.
UniProt P0A3G2, 3-290 with tags or gaps with the stated changes limits assumed: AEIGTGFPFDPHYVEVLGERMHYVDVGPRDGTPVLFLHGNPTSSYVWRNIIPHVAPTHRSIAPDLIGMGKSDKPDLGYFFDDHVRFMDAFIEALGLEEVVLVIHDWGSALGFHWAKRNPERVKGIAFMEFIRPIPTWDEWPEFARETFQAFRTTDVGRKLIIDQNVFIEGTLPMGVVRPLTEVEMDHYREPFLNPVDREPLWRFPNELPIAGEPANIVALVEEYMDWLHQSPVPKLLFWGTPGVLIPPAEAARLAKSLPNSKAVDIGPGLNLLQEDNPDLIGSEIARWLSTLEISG

According to patent publication US20240201196A1:

Key:
HT7 [1] = molecular target: T1, HT7 (Rhodococcus rhodochrous, UniProt P0A3G2, A155T/A167V/A172T/A224E/C128F/C176G/D78G/E160K/E257K/H272N/K175M/K195N/L47V/L88M/N227D/S58T/T264A/Y273L/Y87F); test: Fluorescence polarization titration (KD); details: for binding affinity (KD) to HT7: stated in words
HT7 [2] = molecular target: T1, HT7; test: Protein labeling, SDS-PAGE and in-gel fluorescence; details: labeling 30 minutes, 37° C., SDS-PAGE
[3] = molecular target: live U-2 OS cells (HaloTag7-SNAP-NLS) (Rhodococcus rhodochrous, UniProt P0A3G2, A155T/A167V/A172T/A224E/C128F/C176G/D78G/E160K/E257K/H272N/K175M/K195N/L47V/L88M/N227D/S58T/T264A/Y273L/Y87F); test: Confocal staining of live cells (cell permeability); details: no-wash confocal
[4] = molecular target: fixed U-2 OS cells expressing HaloTag7-SNAP-NLS (Rhodococcus rhodochrous, UniProt P0A3G2, A155T/A167V/A172T/A224E/C128F/C176G/D78G/E160K/E257K/H272N/K175M/K195N/L47V/L88M/N227D/S58T/T264A/Y273L/Y87F); test: Confocal staining of fixed cells; details: 500 nM, no-wash confocal
dHT7^D106A [5] = molecular target: T2, dHT7^D106A (Rhodococcus rhodochrous, UniProt P0A3G2, A155T/A167V/A172T/A224E/C128F/C176G/D106A/D78G/E160K/E257K/H272N/K175M/K195N/L47V/L88M/N227D/S58T/T264A/Y273L/Y87F); test: Fluorescence polarization titration (KD); details: stated in words
HT7 [6] = molecular target: T1, HT7; test: pH-dependency of FP binding kinetics and affinity
dHT7^D106X = dHT7^D106X (Rhodococcus rhodochrous, UniProt P0A3G2, A155T/A167V/A172T/A224E/C128F/C176G/D106C/D78G/E160K/E257K/H272N/K175M/K195N/L47V/L88M/N227D/S58T/T264A/Y273L/Y87F)
HT7 [7] = molecular target: T1, HT7; test: Stopped-flow fluorescence polarization binding kinetics
HT7 [8] = molecular target: T1, HT7; test: Fluorescence turn-on assay
dHT7^D106A [9] = molecular target: T2, dHT7^D106A; test: Stopped-flow fluorescence polarization binding kinetics; details: compared with nrHTL binding to HT7
H2B-HT8 = H2B-HT8 (Rhodococcus rhodochrous, UniProt P0A3G2, A155T/A167V/A172T/A224E/C128F/C176G/C262S/C61S/D78G/E160K/E257K/H272N/K175M/K195N/L47V/L88M/N227D/S58T/T264A/Y273L/Y87F); test: Live-cell confocal staining
[10] = molecular target: H2B-HT7^D106A-T2A-meGFP expressing live cells (Rhodococcus rhodochrous, UniProt P0A3G2, A155T/A167V/A172T/A224E/C128F/C176G/D106A/D78G/E160K/E257K/H272N/K175M/K195N/L47V/L88M/N227D/S58T/T264A/Y273L/Y87F); test: Live-cell no-wash confocal staining
[11] = read-out: binding affinity KD to HT7, fluorogenic variants of nrHTL1 23

SMILES: CN(C)c1ccc2c(-c3cc(C(=O)NCCOCCOCCCCN=[N+]=[N-])ccc3C(=O)[O-])c3ccc(=[N+](C)C)cc-3oc2c1
- binding affinity (KD) to HT7 (HT7 [1]; fluorescence polarization): moderate mM range

SMILES: CC(=O)NCCCCOCCOCCNC(=O)c1ccc(C(=O)[O-])c(C2=C3C=CC(=[N+](C)C)C=C3[Si](C)(C)c3cc(N(C)C)ccc32)c1
- binding affinity (KD) to HT7 (HT7 [1]; fluorescence polarization): No binding

SMILES: C[Si]1(C)C2=CC(=[N+]3CCC3)C=CC2=C(c2cc(C(=O)NCCOCCOCCCCNS(C)(=O)=O)ccc2C(=O)[O-])c2ccc(N3CCC3)cc21
- Kd (HT7 [1]; [11]): 0.12 µM

SMILES: CN(C)c1ccc2c(c1)[Si](C)(C)C1=CC(=[N+](C)C)C=CC1=C2c1cc(C(=O)NCCOCCOCCCCNS(C)(=O)=O)ccc1C(=O)[O-]
- covalent linkage to HT7 (in-gel fluorescence) (HT7 [2]): did not lead to a covalent linkage
- staining of live cells [3]: specific and similar nuclear staining

SMILES: CN(C)c1ccc2c(-c3cc(C(=O)NCCOCCOCCCCNS(C)(=O)=O)ccc3C(=O)[O-])c3ccc(=[N+](C)C)cc-3oc2c1
- staining of fixed cells [4]: properly stained
- binding affinity (KD) to HT7 (HT7 [1]; fluorescence polarization): sub-μM
- binding affinity to dHT7^D106A (dHT7^D106A [5]): significantly less affinity
- pH-dependent affinity (KD) (HT7 [6]; between pH 7.2 and 8.0): constant KD-values
- pH-dependent affinity (KD) (HT7 [6]; pH 6.0): decreased affinity
- covalent linkage to HT7 (in-gel fluorescence) (HT7 [2]): did not lead to a covalent linkage
- staining of live cells [3]: not able to stain live cells

SMILES: CN(C)c1ccc2c(-c3cc(C(=O)NCCOCCOCCCCCNS(C)(=O)=O)ccc3C(=O)[O-])c3ccc(=[N+](C)C)cc-3oc2c1
- binding to HT7^D106C compared with native HT7 (dHT7^D106X): equivalent binder
- enhancement of binding affinity in comparison to TMR-23 (factor) (HT7 [1]; HT7): 2
- binding affinity to dHT7^D106A (dHT7^D106A [5]): significantly less affinity
- covalent linkage to HT7 (in-gel fluorescence) (HT7 [2]): did not lead to a covalent linkage
- staining of live cells [3]: not able to stain live cells
- difference in binding speed compared to TMR-28 (HT7 [7]; HT7): about 4 orders of magnitude
- time to completion of binding to HT7 (HT7 [7]; stopped-flow FP): ≤ 0.5 s

SMILES: CCCCCCOCCOCCNC(=O)c1ccc(C(=O)[O-])c(-c2c3ccc(=[N+](C)C)cc-3oc3cc(N(C)C)ccc23)c1
- binding affinity (KD) to HT7 (HT7 [1]; fluorescence polarization): moderate mM range
- Kd (HT7 [1]; read-out: affinity to HT7, fluorescence polarization): 40 µM

SMILES: CN(C)c1ccc2c(c1)Oc1cc(N(C)C)ccc1C21c2cc(C(=O)NCCOCCOCCCCNS(C)(=O)=O)ccc2C(=O)N1S(=O)(=O)N(C)C
- fluorescence turn-on upon HaloTag binding (HT7 [8]; stated in words): barely shows any turn-on
- Kd (HT7 [1]; [11]): 0.91 µM

SMILES: CC(=O)NCCCCOCCOCCNC(=O)c1ccc(C(=O)[O-])c(-c2c3ccc(=[N+](C)C)cc-3oc3cc(N(C)C)ccc23)c1
- binding affinity (KD) to HT7 (HT7 [1]; fluorescence polarization): No binding

SMILES: CNCCCCCOCCOCCNC(=O)c1ccc(C(=O)[O-])c(-c2c3ccc(=[N+](C)C)cc-3oc3cc(N(C)C)ccc23)c1
- binding to HT7^D106C compared with native HT7 (dHT7^D106X): equivalent binder
- binding affinity (KD) to HT7 (HT7 [1]; fluorescence polarization): sub-μM
- binding affinity to dHT7^D106A (dHT7^D106A [5]): significantly less affinity
- increase of binding speed between pH 6.0 and 8.0 (factor) (HT7 [6]; HT7): about 7
- binding affinity over pH range (HT7 [6]; pH 6.0 to 8.0): stays comparable
- covalent linkage to HT7 (in-gel fluorescence) (HT7 [2]): did not lead to a covalent linkage
- staining of live cells [3]: not able to stain live cells

SMILES: CN(C)c1ccc2c(-c3cc(C(=O)NCCOCCOCCCCNS(=O)(=O)C(F)(F)F)ccc3C(=O)[O-])c3ccc(=[N+](C)C)cc-3oc2c1
- binding affinity (KD) to HT7 (HT7 [1]; fluorescence polarization): analogous to their corresponding nrHTL 23
- covalent linkage to HT7 (in-gel fluorescence) (HT7 [2]): Non-covalent binding

SMILES: CN(C)c1ccc2c(-c3cc(C(=O)NCCOCCOCCCCCO)ccc3C(=O)[O-])c3ccc(=[N+](C)C)cc-3oc2c1
- binding affinity to dHT7^D106A (dHT7^D106A [5]): sub-micromolar affinity
- binding kinetics to dHT7^D106A (dHT7^D106A [9]): even faster

SMILES: CN(C)c1ccc2c(c1)[Si](C)(C)C1=CC(=[N+](C)C)C=CC1=C2c1cc(C(=O)NCCOCCOCCCCNS(=O)(=O)C(F)(F)F)ccc1C(=O)[O-]
- fluorescence turn-on upon HT7 binding (HT7 [8]; quotient of emission with/without HT7 at emission maximum): > 10
- staining of H2B-HT8 (H2B-HT8): superior brightness
- binding affinity (KD) to HT7 (HT7 [1]; fluorescence polarization): analogous to their corresponding nrHTL 23

SMILES: CN(C)c1ccc2c(c1)[Si](C)(C)C1=CC(=[N+](C)C)C=CC1=C2c1cc(C(=O)NCCOCCOCCCCO)ccc1C(=O)[O-]
- cell permeability and staining of H2B-HT7^D106A [10]: sufficient cell permeability and a specific nuclear staining
- binding affinity to dHT7^D106A (dHT7^D106A [5]): sub-micromolar affinity
- binding kinetics to dHT7^D106A (dHT7^D106A [9]): even faster

SMILES: CN(C)c1ccc2c(c1)[Si](C)(C)C1=CC(=[N+](C)C)C=CC1=C2c1cc(C(=O)NCCOCCOCCCCCO)ccc1C(=O)[O-]
- binding affinity (KD) to HT7 (HT7 [1]; fluorescence polarization): decent binding affinity
- binding affinity to dHT7^D106A (dHT7^D106A [5]): sub-micromolar affinity

Where two headings read alike, the source gives them in different places.
